Assay results published in publication PMC6303327 (2018).

B1: Rfa1 DNA-binding domain-A (DBD-A), residues 178-294 [S. cerevisiae] / Rfa3 DNA-binding domain-E (DBD-E), OB domain, residues 1-99 [modified: fluorescent label NT-495 (Monolith NT protein-labeling Kit Blue-Cys) on free cysteine residues; … (parent complex)
chain 1: SQKTRPIFAIEQLSPYQNVWTIKARVSYKGEIKTWHNQRGDGKLFNVNFLDTSGEIRATAFNDFATKFNEILQEGKVYYVSKAKLQPAKPQFTNLTHPYELNLDRDTVIEECFDESN
chain 2: MASETPRVDPTEISNVNAPVFRIIAQIKSQPTESQLILQSPTISSKNGSEVEMITLNNIRVSMNKTFEIDSWYEFVCRNNDDGELGFLILDAVLCKFKE

Variants of: B1
Experiment: microscale thermophoresis (MST); point at the highest DBD-A concentration, about 340 µM (read from x axis); parent: 130; read off a plot

Question: With chain 2 L88D as the variant, how does the response read?
Answer: ~8 ‰ (ΔFnorm)

Variants of: B1
Experiment: as above
Remark: another data set of the same source

Question: chain 2 R60E was tested. Which response did it give?
Answer: ~22 ‰ (ΔFnorm)

Variants of: B1
Experiment: as above
Remark: another data set of the same source

Question: How did the response turn out when chain 2 R78E was run?
Answer: ~51 ‰ (ΔFnorm)
